In patent US6143932A, “Selectively N-alkylated peptidomimetic combinatorial libraries and compounds therein” (dated 2000):

Molecular target: α-glucosidase from bakers yeast
Assay: α-Glucosidase inhibition assay
Settings: read-out: α-Glucosidase Inhibition Assay IC50; p-nitrophenyl-α-D-glucopyranoside as chromogenic substrate, 96-well format

SMILES | IC50
CCN(C(=O)[C@@H](N)Cc1ccccc1)[C@H](CC(C)C)C(=O)NCc1ccc2ccccc2c1 | 398 µM
CCC(C)[C@@H](C(=O)NCc1ccc2ccccc2c1)N(CC)C(=O)[C@@H](N)Cc1ccccc1 (some centres unmarked) | 610 µM
